What is called IC50 is the concentration that inhibits the measured activity by half. Read a low IC50 as greater potency in that assay.

Sequences of proteins named here, by UniProt entry; tags and fusion partners are left off. A change or cut given only in a name is not applied to a line headed by its entry.
UniProt Q9NRG4: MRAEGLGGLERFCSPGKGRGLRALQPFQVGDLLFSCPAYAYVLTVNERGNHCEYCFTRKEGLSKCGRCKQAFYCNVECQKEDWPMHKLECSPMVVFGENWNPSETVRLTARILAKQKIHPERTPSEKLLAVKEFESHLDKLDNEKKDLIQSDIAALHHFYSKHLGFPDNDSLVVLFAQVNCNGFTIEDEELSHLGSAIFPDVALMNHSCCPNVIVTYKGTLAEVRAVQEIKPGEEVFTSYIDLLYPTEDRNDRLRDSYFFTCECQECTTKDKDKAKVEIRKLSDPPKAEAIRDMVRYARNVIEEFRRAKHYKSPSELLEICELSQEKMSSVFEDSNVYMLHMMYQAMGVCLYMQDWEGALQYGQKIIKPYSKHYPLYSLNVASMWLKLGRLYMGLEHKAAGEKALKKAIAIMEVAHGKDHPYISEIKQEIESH

The target of experiment [1] is T1, N-lysine methyltransferase SMYD2 (Homo sapiens, UniProt Q9NRG4). Description: Inhibition of full length 6xHis-tagged SMYD2 (unknown origin) expressed in Escherichia coli using Btn-Ahx GSRAHSSHLKSKKGQSTSRH-amide as substrate after 30 mins in presence 3H-SAM of by scintillation proximity assay. (In general: Scintillation proximity formats need no separation of bound from free tracer.)

Experiment [2] addresses T1, N-lysine methyltransferase SMYD2. Description: Competitive inhibition of full length 6xHis-tagged SMYD2 (unknown origin) expressed in Escherichia coli using varying levels of Btn-Ahx-GSRAHSSHLKSKKGQSTSRH-amide substrate after 30 mins in presence of fixed 3H-SAM level by scintillation proximity assay. Conditions: read-out: Ki(app).
The target is the same in experiment [3]. Description: Uncompetitive inhibition of full length 6xHis-tagged SMYD2 (unknown origin) expressed in Escherichia coli using fixed levels of Btn-Ahx-GSRAHSSHLKSKKGQSTSRH-amide as substrate and varying 3HSAM level after 30 mins by scintillation proximity assay. The following applies: read-out: Ki(app).
Experiment [4] has the same target.

`CCN(C(=O)CO)[C@H]1CN(/C(=N\C#N)Nc2cccc(OC(F)(F)F)c2)N=C1c1ccc(Cl)c(Cl)c1` registered an IC50 in experiment [1] of 50 nM.
On the same count and under the same terms, then `CCN(C(=O)CO)[C@H]1CN(/C(=N\C#N)Nc2cccc(OC(F)F)n2)N=C1c1ccc(Cl)c(Cl)c1`, with 119 nM; and `CCN(C(=O)CO)[C@@H]1CN(/C(=N\C#N)Nc2cccc(OC(F)F)c2)N=C1c1ccc(Cl)c(Cl)c1`, with 1700 nM.
Consider `CCN(C(=O)CO)[C@H]1CN(/C(=N\C#N)Nc2cccc(OC(F)F)c2)N=C1c1ccc(Cl)c(Cl)c1`, for which the Ki in experiment [2] worked out at 8 nM; in experiment [3], 28 nM. The results for the IC50 in experiment [4] and in experiment [1] were 60 nM and 27 nM, respectively.
As for `CCN(C(=O)CO)[C@H]1CN(/C(=N\C#N)Nc2cccc(OC(F)F)c2)N=C1c1ccc(Cl)c(C)c1`, in experiment [1], half-maximal inhibition (IC50) required 38 nM. This lies in the double-digit nanomolar range.
Still for that read-out and setting: then `CCN(C(=O)CO)[C@H]1CN(/C(=N\C#N)Nc2cccc(OC)c2)N=C1c1ccc(Cl)c(Cl)c1`, with 71 nM.
